Earlier results on one substance are cited in patent publication US20160193276A1 (Teva Pharmaceutical Industries, Ltd., priority 2012, published 2016).

The subject of the data set is patients.

As to “L-glutamic acid polymer with L-alanine, L-lysine, L-tyrosine, acetate (salt) [glatiramer acetate]”, the “Proportion of patients reporting injection-site reactions at least once” value (controlled studies, placebo injections 37%) was 70%. The “Safety data in clinical trials” value (injection) was “safe and well tolerated”. The “Patients with Immediate Post-Injection Reaction (IPIR)” value (vs. 13% on placebo) was 31%.
